Assay results published in ChEMBL document CHEMBL1158198, “Indole Alkaloids of Haplophyton crooksii 1” (J Nat Prod, 1996).

Sequences of proteins named here, by UniProt entry; tags and fusion partners are left off. A change or cut given only in a name is not applied to a line headed by its entry.
UniProt O42275: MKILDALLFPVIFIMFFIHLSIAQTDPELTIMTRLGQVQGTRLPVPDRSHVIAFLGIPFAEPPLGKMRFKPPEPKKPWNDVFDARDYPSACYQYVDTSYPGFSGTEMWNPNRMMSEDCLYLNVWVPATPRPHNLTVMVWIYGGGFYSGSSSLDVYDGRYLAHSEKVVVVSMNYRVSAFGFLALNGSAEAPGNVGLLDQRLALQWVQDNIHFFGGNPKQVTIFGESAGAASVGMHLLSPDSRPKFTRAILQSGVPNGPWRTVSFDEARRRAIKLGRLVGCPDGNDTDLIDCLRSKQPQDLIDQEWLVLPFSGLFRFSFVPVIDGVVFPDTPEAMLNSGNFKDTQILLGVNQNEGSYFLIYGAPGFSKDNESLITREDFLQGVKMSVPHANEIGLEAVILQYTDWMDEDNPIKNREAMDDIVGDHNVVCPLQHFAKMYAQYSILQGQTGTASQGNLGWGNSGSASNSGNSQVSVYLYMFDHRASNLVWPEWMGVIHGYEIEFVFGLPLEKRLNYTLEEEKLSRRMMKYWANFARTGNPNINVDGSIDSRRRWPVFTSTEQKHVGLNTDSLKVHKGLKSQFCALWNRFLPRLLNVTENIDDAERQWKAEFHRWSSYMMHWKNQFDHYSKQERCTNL

Biological target: Acetylcholinesterase (Electrophorus electricus, UniProt O42275)
Experiment: Inhibition of electric eel AChE

`CNC(=O)Oc1ccc2c(c1)[C@]1(C)CCN(C)[C@@H]1N2C` [PHYSOSTIGMINE] gave an IC50 of 1.5 µM.
